Results on four compounds are retold here after ChEMBL document CHEMBL1122866, “3-Phenyl-1-indanamines. Potential antidepressant activity and potent inhibition of dopamine, norepinephrine, and serotonin uptake” (J Med Chem, 1985).

Protein sequences, listed by entry. Tags and fused reporters are not part of them.
UniProt P23977, whole entry: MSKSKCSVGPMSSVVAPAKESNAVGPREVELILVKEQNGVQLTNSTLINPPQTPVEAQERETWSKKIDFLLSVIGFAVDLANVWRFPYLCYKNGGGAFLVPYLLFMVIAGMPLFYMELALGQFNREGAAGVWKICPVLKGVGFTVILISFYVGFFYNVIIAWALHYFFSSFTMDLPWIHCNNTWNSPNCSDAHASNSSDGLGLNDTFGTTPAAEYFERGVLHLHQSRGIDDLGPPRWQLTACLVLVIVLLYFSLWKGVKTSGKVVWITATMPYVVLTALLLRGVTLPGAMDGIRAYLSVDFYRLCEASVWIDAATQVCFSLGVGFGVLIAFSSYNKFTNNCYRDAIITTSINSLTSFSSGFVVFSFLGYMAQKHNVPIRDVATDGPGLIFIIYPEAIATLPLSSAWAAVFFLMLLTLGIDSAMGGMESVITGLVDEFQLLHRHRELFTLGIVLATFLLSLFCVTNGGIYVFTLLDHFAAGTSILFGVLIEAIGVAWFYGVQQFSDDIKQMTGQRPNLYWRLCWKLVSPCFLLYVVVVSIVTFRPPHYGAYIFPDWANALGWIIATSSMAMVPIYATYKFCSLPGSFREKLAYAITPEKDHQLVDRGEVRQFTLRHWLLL

SMILES strings stand for the structures.

This test has as its target Sodium-dependent dopamine transporter (Rattus norvegicus, UniProt P23977). Description: Inhibition of dopamine uptake in rat synaptosomal fraction. It is filed as functional.
As to `CNC1CC(c2ccc(Cl)c(Cl)c2)c2ccccc21` (single isomer, unassigned; (+)) [INDATRALINE], inhibition was half-maximal at 0.17 nM (IC50). The same measure for `CNC1CC(c2ccc(Cl)c(Cl)c2)c2ccccc21` (single isomer, unassigned; (-)) [INDATRALINE]: 8.6 nM; for `CNC1CC(c2ccc(Cl)c(Cl)c2)c2ccccc21.Cl` (stereo in doubt; 45): 0.99 nM. As to `CNC1CC(c2ccc(Cl)c(Cl)c2)c2ccccc21` (stereo in doubt; 72), half-maximal inhibition (IC50) was put at 20 nM. Against the preceding compound, the IC50 is about 20-fold higher.

By IC50 is commonly meant the midpoint of a concentration-inhibition curve. A low value points to inhibition by little substance.
